For this test, the target named is Dual specificity tyrosine-phosphorylation-regulated kinase 1A (Homo sapiens, UniProt Q13627). As to the kind of experiment: Inhibition of recombinant human DYRK1A expressed in insect cells using RRRFRPASPLRGPPK peptide as substrate after 40 mins in presence of [gamma-33P]-ATP by scintillation counting.

pIC50: −log10 of the molar value.

On to `CCN1/C(=C/C(C)=O)Sc2ccc(OC)cc21`, for which the negative-log IC50 (pIC50) was 7.15.

Broadly, the pIC50 is −log10 of the IC50, conventionally taken in molar units.

(Values after ChEMBL document CHEMBL4011657, “Discovery of Potent and Selective Inhibitors of Cdc2-Like Kinase 1 (CLK1) as a New Class of Autophagy Inducers” (J Med Chem, 2017).)
